Amino acid sequences for entries named in this document (tags omitted).
UniProt P51681, whole entry: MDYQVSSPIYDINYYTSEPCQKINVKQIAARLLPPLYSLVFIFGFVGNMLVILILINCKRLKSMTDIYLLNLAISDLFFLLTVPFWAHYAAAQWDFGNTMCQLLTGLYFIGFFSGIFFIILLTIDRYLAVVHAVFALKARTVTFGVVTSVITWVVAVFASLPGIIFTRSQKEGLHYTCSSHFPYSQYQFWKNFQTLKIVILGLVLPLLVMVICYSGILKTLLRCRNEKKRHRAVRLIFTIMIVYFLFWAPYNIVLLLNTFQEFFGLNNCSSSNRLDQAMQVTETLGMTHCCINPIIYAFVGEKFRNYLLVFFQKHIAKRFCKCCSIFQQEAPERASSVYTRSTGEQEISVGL

According to ChEMBL document CHEMBL1148299 (J Med Chem, 2004):

Target: C-C chemokine receptor type 5 (Homo sapiens, UniProt P51681)
Assay: Antagonistic activity against C-C chemokine receptor type 5
Format: functional

Compound: Cc1ncnc(C)c1C(=O)N1CCC(C)(N2CCN([C@@H](C)c3ccc(C(F)(F)F)cc3)[C@@H](C)C2)CC1
- Ki: 2.8 nM
